Laboratory results taken from ChEMBL document CHEMBL6096729, “Creating Glepaglutide, the First Long-Acting GLP-2 Analogue to Enable a Ready-to-Use Injection” (J Med Chem, 2025).

Molecular target: T1, Glucagon-like peptide 2 receptor (Homo sapiens, UniProt O95838)
T1 sequence (O95838 whole entry): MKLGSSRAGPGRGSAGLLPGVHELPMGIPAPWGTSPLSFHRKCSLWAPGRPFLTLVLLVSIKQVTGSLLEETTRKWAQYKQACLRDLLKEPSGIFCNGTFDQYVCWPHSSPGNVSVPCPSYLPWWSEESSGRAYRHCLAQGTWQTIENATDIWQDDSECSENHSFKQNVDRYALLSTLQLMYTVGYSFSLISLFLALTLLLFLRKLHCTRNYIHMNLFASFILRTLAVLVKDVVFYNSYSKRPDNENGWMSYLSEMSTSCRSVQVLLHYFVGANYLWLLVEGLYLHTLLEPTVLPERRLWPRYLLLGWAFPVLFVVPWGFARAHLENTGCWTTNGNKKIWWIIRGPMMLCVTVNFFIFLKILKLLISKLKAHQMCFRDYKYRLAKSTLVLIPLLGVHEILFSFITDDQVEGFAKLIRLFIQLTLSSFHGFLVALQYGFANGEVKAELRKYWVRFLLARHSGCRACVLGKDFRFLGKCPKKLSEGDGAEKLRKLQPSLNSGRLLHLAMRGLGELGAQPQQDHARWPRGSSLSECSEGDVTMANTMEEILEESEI
Assay: Agonist activity at recombinant human GLP-2R overexpressed in HEK293 cells assessed as cAMP accumulation by HTRF assay
Assay type: functional, cell-based

Q: How did the EC50 turn out when `CC[C@H](C)[C@H](NC(=O)[C@H](Cc1ccccc1)NC(=O)[C@H](CC(=O)O)NC(=O)[C@H](CCCNC(=N)N)NC(=O)[C@H](C)NC(=O)[C@H](C)NC(=O)[C@H](CC(C)C)NC(=O)[C@H](CC(N)=O)NC(=O)[C@H](CC(=O)O)NC(=O)[C@H](CC(C)C)NC(=O)[C@@H](NC(=O)[C@@H](NC(=O)[C@H](CC(N)=O)NC(=O)[C@H](CCSC)NC(=O)[C@H](CCC(=O)O)NC(=O)[C@H](CC(=O)O)NC(=O)[C@H](CO)NC(=O)[C@H](Cc1ccccc1)NC(=O)[C@H](CO)NC(=O)CNC(=O)[C@H](CC(=O)O)NC(=O)CNC(=O)[C@@H](N)Cc1c[nH]cn1)[C@@H](C)O)[C@@H](C)CC)C(=O)N[C@@H](CC(N)=O)C(=O)N[C@@H](Cc1c[nH]c2ccccc12)C(=O)N[C@@H](CC(C)C)C(=O)N[C@H](C(=O)N[C@@H](CCC(N)=O)C(=O)N[C@H](C(=O)N[C@@H](CCCCN)C(=O)N[C@H](C(=O)N[C@H](C(=O)N[C@@H](CC(=O)O)C(=O)O)[C@@H](C)O)[C@@H](C)CC)[C@@H](C)O)[C@@H](C)CC` [TEDUGLUTIDE] was run?
A: 0.03 nM
